Measured values as given in patent publication US9169224B2, “Piperazinyl and piperidinyl ureas as modulators of fatty acid amide hydrolase” (Janssen Pharmaceutica NV, priority 2004, dated 2015).

Amino acid sequences for entries named in this document (tags omitted).
UniProt O00519, whole entry: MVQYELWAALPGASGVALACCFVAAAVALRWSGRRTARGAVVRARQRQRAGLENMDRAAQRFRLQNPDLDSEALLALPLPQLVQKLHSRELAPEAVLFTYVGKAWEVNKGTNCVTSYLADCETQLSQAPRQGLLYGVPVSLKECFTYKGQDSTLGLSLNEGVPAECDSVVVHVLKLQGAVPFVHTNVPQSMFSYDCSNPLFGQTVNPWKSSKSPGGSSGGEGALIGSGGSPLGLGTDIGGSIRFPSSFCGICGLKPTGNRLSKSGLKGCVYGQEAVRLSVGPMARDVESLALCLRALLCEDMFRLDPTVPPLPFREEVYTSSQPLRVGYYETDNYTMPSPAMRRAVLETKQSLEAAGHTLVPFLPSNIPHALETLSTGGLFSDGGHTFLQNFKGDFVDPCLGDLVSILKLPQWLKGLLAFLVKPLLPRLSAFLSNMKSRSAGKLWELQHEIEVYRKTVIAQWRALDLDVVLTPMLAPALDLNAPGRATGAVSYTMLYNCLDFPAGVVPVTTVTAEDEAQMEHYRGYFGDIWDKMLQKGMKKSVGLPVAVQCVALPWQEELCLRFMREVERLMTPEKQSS
UniProt P97612, whole entry: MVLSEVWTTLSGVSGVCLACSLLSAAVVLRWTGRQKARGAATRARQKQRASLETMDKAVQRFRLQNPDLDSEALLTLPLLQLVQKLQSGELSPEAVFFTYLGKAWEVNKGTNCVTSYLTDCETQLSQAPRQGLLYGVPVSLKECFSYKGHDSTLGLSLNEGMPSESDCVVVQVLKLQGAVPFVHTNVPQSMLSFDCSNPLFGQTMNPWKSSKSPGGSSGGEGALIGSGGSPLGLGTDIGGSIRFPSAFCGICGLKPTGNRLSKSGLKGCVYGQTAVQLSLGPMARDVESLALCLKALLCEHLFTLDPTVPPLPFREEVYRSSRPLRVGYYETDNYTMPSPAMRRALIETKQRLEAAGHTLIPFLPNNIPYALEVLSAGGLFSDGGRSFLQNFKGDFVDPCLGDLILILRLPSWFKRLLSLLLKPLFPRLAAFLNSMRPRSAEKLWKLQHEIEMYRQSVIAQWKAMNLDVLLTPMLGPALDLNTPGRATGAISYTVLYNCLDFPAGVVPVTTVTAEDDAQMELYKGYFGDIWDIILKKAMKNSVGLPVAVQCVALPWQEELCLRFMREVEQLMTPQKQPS

Columns and labels:
FAAH = FAAH (Homo sapiens (Human), UniProt O00519); assay: Assay Method 2: FAAH assay, cells transfected with human FAAH; format: biochemical; details: T84 or human FAAH-transfected SK-N-MC cell homogenate, 3H-AEA tracer 80 nM, 1 h at rt
Protocol: Assay Method 2 A. Transfection of Cells with Human FAAH
(§1) A 10-cm tissue culture dish with a confluent monolayer of SK-N-MC cells was split 2 days (d) prior to transfection. Using sterile technique, the media was removed and the cells were detached from the dish by the addition of trypsin. One fifth of the cells were then placed onto a new 10-cm dish. Cells were grown in a 37° C. incubator with 5% CO2 in Minimal Essential Media Eagle with 10% Fetal Bovine Serum. After 2 d, cells were approximately 80% confluent. These cells were removed from the dish with trypsin and pelleted in a clinical centrifuge. The pellet was re-suspended in 400 μL complete media and transferred to an electroporation cuvette with a 0.4 cm gap between the electrodes. Supercoiled human FAAH cDNA (1 pg) was added to the cells and mixed. The voltage for the electroporation was set at 0.25 kV, and the capacitance was set at 960 μF. After electroporation, the cells were diluted into complete media (10 mL) and plated onto four 10-cm dishes. Because of the variability in the efficiency of electroporation, four different concentrations of cells were plated. The ratios used were 1:20, 1:10, and 1:5, with the remainder of the cells being added to the fourth dish. […] After 10 d, dishes were analyzed for surviving colonies of cells. […]

rat FAAH = rat FAAH (Rattus norvegicus (Rat), UniProt P97612); assay: Assay Method 3: FAAH assay, cells transfected with rat FAAH; format: biochemical; details: T84 or rat FAAH-transfected SK-N-MC cell homogenate, 3H-AEA tracer 80 nM, 1 h at rt
Protocol: Assay Method 3 A. Transfection of Cells with Rat FAAH
as §1, with “rat” for “human”, “μg)” for “pg)”

## O=C(Nc1cccnc1)N1CCN(Cc2ccc3c(c2)OC(F)(F)O3)CC1 [Example 150, 4-(2,2-Difluoro-benzo[1,3]dioxol-5-ylmethyl)-piperazine-1-carboxylic acid pyridin-3-ylamide]
FAAH
  IC50: 130 nM
Rat FAAH
  IC50: 290 nM
